Active and inactive are the calls of the source. No cut-off for these calls is given here.

Type in all cases: functional, organism-based
In experiment [1] the test system is Mus musculus. Put plainly: Antiinflammatory activity against imiquimod-induced BALB/c mouse psoriasis model assessed as reduction in total psoriasis at 2 to 30 mg/kg, po qd measured on day 3. As to conditions: dose 2-30 mg/kg, time 4.0 day.
Experiment [2] relates to Mus musculus. In words: Antiinflammatory activity against imiquimod-induced BALB/c mouse psoriasis model assessed as improvement in skin conditions at 30 mg/kg, po qd measured on day 4. Conditions: time 4.0 day.
The subject of experiment [3] is Mus musculus. Put plainly: Antiinflammatory activity against imiquimod-induced BALB/c mouse psoriasis model assessed as improvement in psoriasis area and severity index scores at 30 mg/kg, po qd measured on day 4. Conditions: time 4.0 day.
The subject of experiment [4] is Mus musculus. In words: Antiinflammatory activity against imiquimod-induced BALB/c mouse psoriasis model assessed as psoriasis area and severity index scores at 30 mg/kg, po qd measured on day 6 to 7. Conditions: time 6-7 day.
For experiment [5], the system named is Mus musculus. In words: Antiinflammatory activity against imiquimod-induced BALB/c mouse psoriasis model assessed as reduction in epidermal proliferation in mouse back skin at 30 mg/kg, po qd administered for 7 days by hematoxylin and eosin staining based analysis. Conditions: time 7.0 day.

Regarding `C[C@@H](CC(=O)O)c1ccc(OCc2cc(F)c3c(-c4cc(Cl)c(CO)c(Cl)c4)nn(C4CCCC4)c3c2)cc1`, the result in the experiment on Mus musculus [1] was inactive. The outcome in the experiment on Mus musculus [2], in the experiment with Mus musculus [3], with Mus musculus [4] and in the experiment on Mus musculus [5] was Active.

For the origin of these results see ChEMBL document CHEMBL5370654, “Discovery of 3-Phenyl Indazole-Based Novel Chemokine-like Receptor 1 Antagonists for the Treatment of Psoriasis” (J Med Chem, 2023).
